Sequences of proteins named here, by UniProt entry; tags and fusion partners are left off. Residues count along the entry.
UniProt P28335, 33-458: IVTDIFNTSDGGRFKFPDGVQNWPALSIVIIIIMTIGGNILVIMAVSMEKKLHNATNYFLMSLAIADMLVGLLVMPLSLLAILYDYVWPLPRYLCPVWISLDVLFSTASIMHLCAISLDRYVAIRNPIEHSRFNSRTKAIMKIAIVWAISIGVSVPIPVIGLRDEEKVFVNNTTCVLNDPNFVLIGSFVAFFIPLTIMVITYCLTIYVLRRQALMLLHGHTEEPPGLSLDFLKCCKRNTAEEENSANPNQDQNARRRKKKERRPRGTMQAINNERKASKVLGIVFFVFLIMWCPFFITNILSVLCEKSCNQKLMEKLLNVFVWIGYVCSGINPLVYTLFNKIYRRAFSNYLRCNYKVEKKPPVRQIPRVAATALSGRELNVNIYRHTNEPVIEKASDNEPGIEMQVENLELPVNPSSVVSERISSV

According to patent US20100035871A1, “BENZOXAZINE DERIVATIVES AND USES THEREOF” (priority 2006, published 2010):

What was measured:
human 5-HT2C receptor [1] = molecular target: T1, human 5-HT2C receptor (Homo sapiens, UniProt P28335); assay: 5-HT2C receptor-stimulated calcium mobilization (FLIPR) in CHO cells; assay type: cell-based; conditions: reference compounds
T1 construct: expressed in transfected cells; host or cells: CHO (Chinese Hamster Ovary) cells; membrane preparation

human 5-HT2C receptor [2] = molecular target: T1, human 5-HT2C receptor; assay: 5-HT2C receptor binding, [125I]DOI displacement, membranes of transfected CHO cells; conditions: reference compounds; value (95% confidence interval); [125I]DOI binding

1-(2,5-dimethoxy-4-iodophenyl)isopropylamine [DOI, reference compound]
EC50 (human 5-HT2C receptor [1]): 0.5 nM | Ki (human 5-HT2C receptor [2]): 6.2 nM
